# Values quoted from earlier work, collected in PMC8470770, “Characterization of a Primate Blood-Brain Barrier Co-Culture Model Prepared from Primary Brain Endothelial Cells, Pericytes and Astrocytes” (Pharmaceutics, 2021).
# System: primary triple co-culture monkey BBB model
# Conditions: cited from earlier work
substance,measurement,value
maraviroc,mean Papp across the monkey BBB model,1.6e-05 cm/s
